Reference: PubChem BioAssay AID1688 (National Center for Advancing Translational Sciences (NCATS), 2009)
This is a selection; strong and weak results do not stand in their true shares. Inconclusive results are not listed. Calls of active or inactive are those of the source. Calls follow the shape of the dose curve; as a rule, active = well fitted inhibition curve with a large enough effect; inconclusive = small, poorly fitted or top-dose-only effect, or effect the other way; inactive = no such curve, though single readings can be large or run the other way.

assay: qHTS Multiplex Assay to Identify Dual Action Probes in a Cell Model of Huntington: Aggregate Formation (GFP); conditions: PC12 HttQ103-GFP aggregates, Acumen cytometry, 40 h; at 46.1 µM (top of the series) unless noted; also: nearly all actives have a fitted effect of over 60% in size
% is scaled to controls: 0 for no effect and ±100 for the full control effect.

For `CP(=O)(Nc1ccc(Cl)cc1)Oc1ccc(F)cc1` (configuration not stated), which activity change, negative = inhibition is on record?
Its activity change, negative = inhibition is inactive: -3.82%.

Which activity change, negative = inhibition does the source give for `COc1ccccc1OP(C)(=O)Nc1ccccc1Br` (configuration not stated) here?
The activity change, negative = inhibition was inactive: 8.67%.

For `CC(C)(C)c1ccc(OP(C)(=O)O)cc1`, which activity change, negative = inhibition is on record?
Its activity change, negative = inhibition is inactive: -2.19%.

Which activity change, negative = inhibition does the source give for `CP(=O)(Oc1ccccc1)N1CCOC1=O` (configuration not stated) here?
Its activity change, negative = inhibition is inactive: -4.32%.

For `CCc1ccc(OP(C)(=O)Nc2cccnc2)cc1` (configuration not stated), which activity change, negative = inhibition is on record?
Its activity change, negative = inhibition is inactive: 0.334%.

With `COc1ccccc1OP(C)(=O)Nc1c(C)n(C)n(-c2ccccc2)c1=O` (configuration not stated) as the compound, how does the activity change, negative = inhibition read?
The activity change, negative = inhibition was inactive: 14.1%.

With `OCCSCCO` as the compound, how does the activity change, negative = inhibition read?
Its activity change, negative = inhibition is inactive: -9.98%.

With `N#[O+].[C-]#N.[C-]#N.[C-]#N.[C-]#N.[C-]#N.[Fe+2].[Na+].[Na+]` as the compound, how does the activity change, negative = inhibition read?
The activity change, negative = inhibition was inactive: 14%.

Which activity change, negative = inhibition does the source give for `CCN(CC)CC(O)COC(=O)C(O)(c1ccccc1)C1CCCCC1` (configuration not stated) here?
The activity change, negative = inhibition was inactive: 0.177%.

With `COc1ccc(OP(C)(=O)Nc2ccc(Br)cc2)cc1` (configuration not stated) as the compound, how does the activity change, negative = inhibition read?
Its activity change, negative = inhibition is inactive: 2.35%.

Which activity change, negative = inhibition does the source give for `C/C1=C2N=C(/C=C3N=C(/C(C)=C4\[N-][C@@](C)([C@H]5N=C1[C@@](C)(CCC(=O)NC[C@H](C)OP(=O)([O-])O[C@@H]1[C@H](O)[C@H](n6cnc7cc(C)c(C)cc76)O[C@@H]1CO)[C@@H]5CC(N)=O)[C@](C)(CC(N)=O)[C@H]4CCC(N)=O)[C@@](C)(CC(N)=O)[C@@H]\3CCC(N)=O)C(C)(C)[C@@H]/2CCC(N)=O.[C-]#N.[Co+3]` here?
Its activity change, negative = inhibition is inactive: 11.3% [at 20.6 µM].

With `CC(C)OP(=O)(F)OC(C)C` as the compound, how does the activity change, negative = inhibition read?
The activity change, negative = inhibition was inactive: 27.4%.

For `CP(=O)(OC12CC3CC(CC(C3)C1)C2)OC12CC3CC(CC(C3)C1)C2`, which activity change, negative = inhibition is on record?
Its activity change, negative = inhibition is inactive: 9.97%.

For `CCOC(=O)c1ccc(NP(C)(=O)Oc2ccc(Cl)cc2)cc1` (configuration not stated), which activity change, negative = inhibition is on record?
Its activity change, negative = inhibition is inactive: -3.65%.

With `CP(=O)(Nc1ccc(Cl)cc1Cl)Oc1ccccc1` (configuration not stated) as the compound, how does the activity change, negative = inhibition read?
Its activity change, negative = inhibition is inactive: 3.55%.

With `CP(=O)(OCCOc1ccccc1)OCCOc1ccccc1` as the compound, how does the activity change, negative = inhibition read?
Its activity change, negative = inhibition is inactive: 13.3%.

For `COc1ccc(OP(C)(=O)Nc2ccccc2Br)cc1` (configuration not stated), which activity change, negative = inhibition is on record?
The activity change, negative = inhibition was inactive: -2.31%.

Which activity change, negative = inhibition does the source give for `COc1ccccc1OP(C)(=O)Nc1ccc(C)c(C)c1` (configuration not stated) here?
The activity change, negative = inhibition was inactive: -6.12%.

Which activity change, negative = inhibition does the source give for `Cc1cc(C)cc(OP(C)(=O)Nc2cccc(C(F)(F)F)c2)c1` (configuration not stated) here?
The activity change, negative = inhibition was inactive: 7.48% [at 9.22 µM].

For `CCc1ccc(OP(C)(=O)O)cc1`, which activity change, negative = inhibition is on record?
Its activity change, negative = inhibition is inactive: -9.35%.

For `CP(=O)(Nc1ccccn1)Oc1ccccc1` (configuration not stated), which activity change, negative = inhibition is on record?
The activity change, negative = inhibition was inactive: -16.4%.

For `COc1ccccc1OP(C)(=O)Nc1ccc(C)cc1C` (configuration not stated), which activity change, negative = inhibition is on record?
The activity change, negative = inhibition was inactive: 6.8%.

For `Cc1c(NP(C)(=O)Oc2ccc(C(C)C)cc2)c(=O)n(-c2ccccc2)n1C` (configuration not stated), which activity change, negative = inhibition is on record?
Its activity change, negative = inhibition is inactive: 2.68%.

With `O=[N+]([O-])c1cc([N+](=O)[O-])c(Nc2ccccn2)c([N+](=O)[O-])c1` as the compound, how does the activity change, negative = inhibition read?
The activity change, negative = inhibition was inactive: -1.39% [at 9.22 µM].

For `CN(C)CCOC(=O)C(O)(c1ccccc1)C1CCCC1` (configuration not stated), which activity change, negative = inhibition is on record?
The activity change, negative = inhibition was inactive: 7.95%.

With `COc1ccccc1OP(C)(=O)Nc1ccc(Br)cc1` (configuration not stated) as the compound, how does the activity change, negative = inhibition read?
Its activity change, negative = inhibition is inactive: -11.8% [at 9.22 µM].

For `O=C(OCCN1CCN(CCOCc2ccccc2)CC1)C(O)(c1ccccc1)c1ccccc1`, which activity change, negative = inhibition is on record?
Its activity change, negative = inhibition is inactive: 10.1%.

Which activity change, negative = inhibition does the source give for `CC(C)c1ccc(OP(C)(=O)Nc2ccc(SC(F)(F)F)cc2)cc1` (configuration not stated) here?
The activity change, negative = inhibition was inactive: -5.53%.

Which activity change, negative = inhibition does the source give for `CP(=O)(Nc1ccccc1F)Oc1ccccc1` (configuration not stated) here?
The activity change, negative = inhibition was inactive: 7.75%.

With `CCCCCOc1ccc(NP(C)(=O)Oc2ccc(Cl)cc2Cl)cc1` (configuration not stated) as the compound, how does the activity change, negative = inhibition read?
The activity change, negative = inhibition was inactive: -3.15% [at 9.22 µM].

For `CP(=O)(Nc1ccccc1)Oc1ccc(F)cc1` (configuration not stated), which activity change, negative = inhibition is on record?
Its activity change, negative = inhibition is inactive: 2.24%.

Which activity change, negative = inhibition does the source give for `CCN(CC)CCCOC(=O)C(O)(c1ccccc1)C1CCCCC1` (configuration not stated) here?
Its activity change, negative = inhibition is inactive: 0.946%.

With `COc1ccc(OP(C)(=O)Nc2ccc(SC(F)(F)F)cc2)cc1` (configuration not stated) as the compound, how does the activity change, negative = inhibition read?
The activity change, negative = inhibition was inactive: -15.3%.

Which activity change, negative = inhibition does the source give for `CCOC(=O)c1ccc(NP(C)(=O)Oc2ccc(F)cc2)cc1` (configuration not stated) here?
Its activity change, negative = inhibition is inactive: -20.3%.

Which activity change, negative = inhibition does the source give for `Cc1cc(-c2cccc3ccccc23)c(C)cn1.O=[N+]([O-])c1cc([N+](=O)[O-])c(O)c([N+](=O)[O-])c1` here?
Its activity change, negative = inhibition is inactive: -7.36% [at 9.22 µM].

For `O=[N+]([O-])c1ccc(OP2(=O)COCCO2)cc1` (configuration not stated), which activity change, negative = inhibition is on record?
The activity change, negative = inhibition was inactive: -11.9% [at 9.22 µM].

With `COc1ccc(NP(C)(=O)Oc2ccccc2OC)cc1` (configuration not stated) as the compound, how does the activity change, negative = inhibition read?
The activity change, negative = inhibition was inactive: 1.4%.

With `CN(C)CCOC(=O)C(O)(c1ccccc1)C1CCCCC1` (configuration not stated) as the compound, how does the activity change, negative = inhibition read?
Its activity change, negative = inhibition is inactive: -27.6%.

With `COc1ccc(OP(C)(=O)Nc2cccc(Br)c2)cc1` (configuration not stated) as the compound, how does the activity change, negative = inhibition read?
Its activity change, negative = inhibition is inactive: -4.67%.

With `Cc1ccccc1NP(C)(=O)Nc1ccccc1C` as the compound, how does the activity change, negative = inhibition read?
The activity change, negative = inhibition was inactive: 24.3%.

For `CP(=O)(Nc1ccc2c(c1)OCCO2)Oc1ccccc1` (configuration not stated), which activity change, negative = inhibition is on record?
The activity change, negative = inhibition was inactive: 3.02%.

Which activity change, negative = inhibition does the source give for `CCOP(C)(=S)SCC(=O)NC(C)(CC)C(=O)O` (configuration not stated) here?
The activity change, negative = inhibition was inactive: 17.4%.

Which activity change, negative = inhibition does the source give for `CP(=O)(Nc1ccc(SC(F)(F)F)cc1)Oc1ccc(F)cc1` (configuration not stated) here?
The activity change, negative = inhibition was inactive: -5.12% [at 9.22 µM].

For `Cc1nc2ccc3ccccc3c2s1.O=[N+]([O-])c1cc([N+](=O)[O-])c(O)c([N+](=O)[O-])c1`, which activity change, negative = inhibition is on record?
The activity change, negative = inhibition was inactive: -2.12%.

For `O=[N+]([O-])c1cc([N+](=O)[O-])c(-n2nnc3ccccc32)c([N+](=O)[O-])c1`, which activity change, negative = inhibition is on record?
Its activity change, negative = inhibition is inactive: 4.69%.

For `CCCOc1ccc(NP(C)(=O)Oc2ccc(Cl)cc2)cc1` (configuration not stated), which activity change, negative = inhibition is on record?
The activity change, negative = inhibition was inactive: -14.3%.

With `CP(=O)(Nc1ccc(SC(F)(F)F)cc1)Oc1ccccc1` (configuration not stated) as the compound, how does the activity change, negative = inhibition read?
The activity change, negative = inhibition was inactive: -11%.

For `COc1ccccc1OP(C)(=O)Nc1c(C)cccc1C` (configuration not stated), which activity change, negative = inhibition is on record?
The activity change, negative = inhibition was inactive: 11.4%.

For `CN1CCCCC1COC(=O)C1(O)c2ccccc2CCc2ccccc21` (configuration not stated), which activity change, negative = inhibition is on record?
The activity change, negative = inhibition was inactive: -2.6%.

Which activity change, negative = inhibition does the source give for `O=[N+]([O-])c1cc([N+](=O)[O-])c(Nc2nnnn2CCO)c([N+](=O)[O-])c1` here?
The activity change, negative = inhibition was inactive: -41.7% [at 9.22 µM].

For `O=[N+]([O-])OCC(CO[N+](=O)[O-])(CO[N+](=O)[O-])CO[N+](=O)[O-]`, which activity change, negative = inhibition is on record?
The activity change, negative = inhibition was inactive: 9.38%.

For `CC1=NCCc2c1[nH]c1ccccc21.O=[N+]([O-])c1cc([N+](=O)[O-])c(O)c([N+](=O)[O-])c1`, which activity change, negative = inhibition is on record?
Its activity change, negative = inhibition is inactive: -0.397%.

For `O=[N+]([O-])c1cccc([N+](=O)[O-])c1`, which activity change, negative = inhibition is on record?
The activity change, negative = inhibition was inactive: 5.9%.

With `Cc1cc(C)cc(OP(C)(=O)Nc2ccccn2)c1` (configuration not stated) as the compound, how does the activity change, negative = inhibition read?
The activity change, negative = inhibition was inactive: -3.34%.

Which activity change, negative = inhibition does the source give for `CP(=O)(Nc1cccc(Br)c1)Oc1ccccc1` (configuration not stated) here?
The activity change, negative = inhibition was inactive: -1.34%.

With `Cc1ccc(C)c(NP(C)(=O)Oc2ccccc2)c1` (configuration not stated) as the compound, how does the activity change, negative = inhibition read?
Its activity change, negative = inhibition is inactive: 20.7%.

With `Cc1cc(C)cc(OP(C)(=O)Nc2ccc(C)cc2C)c1` (configuration not stated) as the compound, how does the activity change, negative = inhibition read?
Its activity change, negative = inhibition is inactive: -8.97%.
